The list shows a part of the results, in another mix than the full data. Some of these compounds have results that are not shown, active ones among them. The source made the active and inactive calls. Rule as the data show it: active = response mostly above about 7.3% (no sharp cut-off); inactive = mostly below about 5.4%.

The assay is described as follows: yeast vacuolar ATPase proton transport modulators – pHLuorin cytosolic pH fluorescence, primary screen (AID 504577). Also: actives read high. The following applies: S. cerevisiae, at 10 µM, hits give high values.
`O=C(NCC1(N2CCCCC2)CCCCC1)c1cc([N+](=O)[O-])ccc1Cl`: the response is inactive: 0.72%. `CN1[C@@H]2CC[C@H]1CC(OC(=O)C(O)(c1ccccc1)c1ccccc1)C2` (stereo partly specified): the response was inactive: 0.9%. In the case of `CCN(CC)CC(C)C(C)OC(=O)C(O)(c1ccccc1)c1ccccc1` (stereo unspecified) it was inactive: 0.97%; in that of `COc1cc(SC)ccc1C(=O)NCC1(N(C)C)CCCCC1`, inactive: 0.22%.

As to `CC(C)N1C(=O)CC2(CCN(CCOC(=O)C(O)(c3ccccc3)c3ccccc3)CC2)C1=O`, the response was inactive: -0.87%. Take `Cc1ccc(C(=O)NCC2(N3CCCCC3)CCCCC2)cc1`: the response was inactive: -1.8%.

For `Cc1ccccc1C(=O)NCC1(N2CCCCC2)CCCCC1`, the response is inactive: -0.16%. In the case of `CN(C)C1CCCC1OC(=O)C(O)(c1ccccc1)c1ccccc1` (stereo unspecified) it was inactive: -1.23%; in that of `CN(C)c1ccc(C(=O)NCC2(N(C)C)CCCCC2)cc1`, inactive: -3.58%; in that of `C=CCN1CCN(CCOC(=O)C(O)(c2ccccc2)c2ccccc2)CC1`, inactive: 1.81%.

`O=C(NCC1(N2CCCCC2)CCCCC1)c1cc(F)c(F)cc1Cl`: the response was inactive: 5.33%.

Turning to `COc1ccc(C(=O)NCC2(N(C)C)CCCCC2)cc1`, the response is inactive: 1.05%. As for `Cc1cc(C(=O)NCC2(N3CCCCC3)CCCCC2)ccc1[N+](=O)[O-]`, the response was inactive: 1.99%. On to `CCN1CCCC(OC(=O)C2(O)c3ccccc3C=Cc3ccccc32)C1` (stereo unspecified), for which the response was inactive: 4.36%. Consider `O=C(NCC1(N2CCCCC2)CCCCC1)c1cccc(Br)c1`, for which the response was inactive: -1.45%.

For the compound `CN(C)C1(CNC(=O)c2ccc(Br)cc2)CCCCC1`, the response was inactive: 2.16%. Take `COc1cc(C(=O)NCC2(N(C)C)CCCCC2)c([N+](=O)[O-])cc1OC`: the response is inactive: -1.84%. In the case of `COc1cccc(C(=O)NCC2(N3CCCCC3)CCCCC2)c1` it was inactive: -1.13%. `COc1ccc(Cl)cc1C(=O)NCC1(N(C)C)CCCCC1`: the response is inactive: 2.94%. In the case of `O=C(NCC1(N2CCCCC2)CCCCC1)c1cccc(Cl)c1` it was inactive: -1.97%; in that of `O=C(OC1CN2CCC1CC2)C(CO)(c1ccccc1)c1ccccc1` (stereo unspecified), inactive: -0.67%; in that of `C=C(C)C#CC(O)(C(=O)OC1CCN(C)CC1)c1ccccc1` (stereo unspecified), inactive: -3.11%. For the compound `COc1ccc(Br)c(C(=O)NCC2(N3CCCCC3)CCCCC2)c1`, the response is inactive: 2.09%. In the case of `CC(C)Oc1ccc(C(=O)NCC2(N(C)C)CCCCC2)cc1`, the response is inactive: -3.77%. Take `O=C(OCCN1CCCC1)C(O)(c1ccccc1)c1ccccc1`: the response is inactive: -3.18%. As for `CN(C)c1cccc(C(=O)NCC2(N(C)C)CCCCC2)c1`, the response is inactive: -0.85%.

Source of the values: PubChem BioAssay AID504577 (NMMLSC, 2011).
